Laboratory results taken from ChEMBL document CHEMBL5528080, “Discovery of RORγ Allosteric Fluorescent Probes and Their Application: Fluorescence Polarization, Screening, and Bioimaging” (J Med Chem, 2024).

Protein sequences, listed by entry. Tags and fused reporters are not part of them. Lines headed by an entry give the natural chain unless they say otherwise; changes in a name come on top.
UniProt P51449: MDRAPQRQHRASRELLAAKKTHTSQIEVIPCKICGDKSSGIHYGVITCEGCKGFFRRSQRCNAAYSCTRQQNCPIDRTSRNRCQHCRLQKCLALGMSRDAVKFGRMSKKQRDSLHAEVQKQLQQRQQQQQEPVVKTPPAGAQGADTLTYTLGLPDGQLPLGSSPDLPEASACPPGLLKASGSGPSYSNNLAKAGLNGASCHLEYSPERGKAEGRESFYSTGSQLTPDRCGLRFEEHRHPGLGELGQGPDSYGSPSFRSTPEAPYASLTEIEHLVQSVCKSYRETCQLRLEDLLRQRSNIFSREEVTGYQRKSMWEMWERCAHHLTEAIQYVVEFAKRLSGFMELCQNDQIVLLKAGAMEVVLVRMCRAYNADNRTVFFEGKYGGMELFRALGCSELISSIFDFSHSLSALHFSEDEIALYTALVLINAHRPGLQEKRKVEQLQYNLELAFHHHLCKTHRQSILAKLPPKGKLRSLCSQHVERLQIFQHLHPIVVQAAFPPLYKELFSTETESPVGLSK

Key:
[1] = molecular target: T1, Nuclear receptor ROR-gamma (Homo sapiens, UniProt P51449); details: Sf9
[2] = molecular target: T1, Nuclear receptor ROR-gamma; details: Sf9, filed as negative allosteric modulator, dose 1.0 mM, time 30.0 min
[3] = molecular target: T1, Nuclear receptor ROR-gamma; details: Sf9, dose 0.5 mM, time 30.0 min

ΔTm [1] | inhibition [2] | inhibition [3] | SMILES
0.7 °C |  |  | NCCCCCCC#Cc1ccc2c(-c3ccc(C(=O)O)cc3)nn(C(=O)c3c(Cl)cccc3C(F)(F)F)c2c1
1.9 °C |  |  | NCCCCCCCCNC(=O)c1ccc2c(-c3ccc(C(=O)O)cc3)nn(C(=O)c3c(Cl)cccc3C(F)(F)F)c2c1
3.3 °C |  |  | NCCOCCOCCNC(=O)c1ccc2c(-c3ccc(C(=O)O)cc3)nn(C(=O)c3c(Cl)cccc3C(F)(F)F)c2c1
0.05 °C |  |  | NCCOCCNC(=O)c1ccc2c(-c3ccc(C(=O)O)cc3)nn(C(=O)c3c(Cl)cccc3C(F)(F)F)c2c1
1.4 °C |  |  | NCCCCCCCNC(=O)c1ccc2c(-c3ccc(C(=O)O)cc3)nn(C(=O)c3c(Cl)cccc3C(F)(F)F)c2c1
0.8 °C |  |  | NCCCCCCCCNc1ccc2c(-c3ccc(C(=O)O)cc3)nn(C(=O)c3c(Cl)cccc3C(F)(F)F)c2c1
2.4 °C |  |  | NCCC(=O)NCCCCCCNC(=O)c1ccc2c(-c3ccc(C(=O)O)cc3)nn(C(=O)c3c(Cl)cccc3C(F)(F)F)c2c1
0.6 °C |  |  | NCCCCCCCNc1ccc2c(-c3ccc(C(=O)O)cc3)nn(C(=O)c3c(Cl)cccc3C(F)(F)F)c2c1
1.5 °C |  |  | NCCCCCCNC(=O)c1ccc2c(-c3ccc(C(=O)O)cc3)nn(C(=O)c3c(Cl)cccc3C(F)(F)F)c2c1
1.1 °C |  |  | NCCOCCOCCOCCNC(=O)c1ccc2c(-c3ccc(C(=O)O)cc3)nn(C(=O)c3c(Cl)cccc3C(F)(F)F)c2c1
0.5 °C |  |  | NCCCCCCNc1ccc2c(-c3ccc(C(=O)O)cc3)nn(C(=O)c3c(Cl)cccc3C(F)(F)F)c2c1
 | 63.1% | 29.1% | COc1cc(-c2nc3ccccn3c2/N=C/c2c[nH]nc2-c2ccccc2)ccc1O
